The test system of this assay is BCG. Type of assay: cell-based.

This is an account of results in patent US11529354B2, “Methods and compositions for the treatment of tuberculosis” (PRESIDENT AND FELLOWS OF HARVARD COLLEGE, priority 2017, dated 2022).

Consider `Cn1ccc(=Nc2ccc(NC(=O)c3ccc(N=c4ccn(C)c5ccc([N+](=O)[O-])cc45)cc3)cc2)cc1` [NSC 260594, 4-[(1-methyl-6-nitroquinolin-4-ylidene)amino]-N-[4-[(1-methylpyridin-4-ylidene)amino]phenyl]benzamide], for which the “CFU in combination with clinical drugs” value is given as “CFU decreased”.
